{"source": "patent US20100320428A1", "about": "“GASEOUS DIELECTRICS WITH LOW GLOBAL WARMING POTENTIALS” (priority 2006, published 2010)", "origin": "cited, not measured here", "details": "boiling point; Table 2, preferred dielectric compounds; cited from earlier work", "data": [{"substance": "Phosphorus chloride difluoride", "values": [{"measurement": "MY BP", "value": "−47.3", "unit": "°C"}]}]}
